In patent US20250002487A1, “HETEROCYCLIC COMPOUNDS AND USES THEREOF” (Ventus Therapeutics U.S., Inc., priority 2021, published 2025) one finds IC50 data, which are given here for two compounds.

Chains of the proteins cited; added tags and fusions are not shown.
UniProt Q8N884, whole entry: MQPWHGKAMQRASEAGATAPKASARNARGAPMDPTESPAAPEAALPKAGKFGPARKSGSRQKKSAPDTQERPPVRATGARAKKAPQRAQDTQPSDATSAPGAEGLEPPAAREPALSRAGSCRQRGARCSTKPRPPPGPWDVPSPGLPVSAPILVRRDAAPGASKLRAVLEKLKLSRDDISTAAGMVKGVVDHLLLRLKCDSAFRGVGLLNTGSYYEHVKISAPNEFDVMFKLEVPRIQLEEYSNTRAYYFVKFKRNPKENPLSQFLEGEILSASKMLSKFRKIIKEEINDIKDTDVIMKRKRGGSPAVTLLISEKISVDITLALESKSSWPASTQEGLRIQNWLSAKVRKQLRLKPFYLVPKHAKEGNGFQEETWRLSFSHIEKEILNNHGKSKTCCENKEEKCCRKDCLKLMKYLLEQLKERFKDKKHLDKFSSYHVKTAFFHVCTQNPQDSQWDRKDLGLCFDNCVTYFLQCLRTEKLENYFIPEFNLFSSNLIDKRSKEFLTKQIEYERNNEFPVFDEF

This assay addresses human-cGAS (h-cGAS) (Homo sapiens, UniProt Q8N884). The experiment in a line: hcGAS Kinase-Glo Assay. Type of assay: biochemical. As to conditions: read-out: hcGAS potency IC50, 40 nM h-cGAS, 100 μM ATP, 100 μM GTP, 25 nM dsDNA, 3 h incubation. Here is the method: In some embodiments, the compounds of the instant disclosure may be tested for their human-cGAS (h-cGAS) inhibition activity using the methodology reported in Lama et al., “Development of human cGAS-specific small molecule inhibitors for repression of double stranded DNA (dsDNA)-triggered interferon expression”, Nature Communications 10, Article number: 2261 (2019), incorporated herein by reference. hcGAS Kinase-Glo Assay Compounds were tested for their human-cGAS (h-cGAS) inhibition activity using the methodology reported in Lama et al., “Development of human cGAS-specific small molecule inhibitors for repression of double stranded DNA (dsDNA)-triggered interferon expression”, Nature Communications 10. Article number: 2261 (2019), which is herein incorporated by reference in its entirety, with slight changes to some conditions as shown in Table B. The results of the assays, expressed in IC50 ranges are reported in Table C with the following designations: A represents an IC50 value <0.1 μM; B represents an IC50 value ≥0.1 μM and <0.5 μM; C represents an IC50 value ≥0.5 μM and <1.0 μM; D represents an IC50 value ≥1.0 μM. [table]
In general terms: Kinase-Glo reads ATP consumption through a luciferase reaction.

In the case of `CSc1nnc(NC(=O)c2nc(C3CCCCC3)no2)s1`, the IC50 (usually the point on the concentration scale where inhibition reaches its midpoint) lay in the range of 500 to 1000 nM.
Turning to `CSc1nnc(NC(=O)c2nnc(C3CCCCC3)o2)s1`, the IC50 lay in the range of 500 to 1000 nM.
